# In patent US20080051429A1, “USE OF 4-AMINO-PIPERIDINES FOR TREATING SLEEP DISORDERS” (priority 2006, published 2008):
# The chains behind the UniProt entries cited, without tags or fusion partners.
# UniProt P28223, whole entry: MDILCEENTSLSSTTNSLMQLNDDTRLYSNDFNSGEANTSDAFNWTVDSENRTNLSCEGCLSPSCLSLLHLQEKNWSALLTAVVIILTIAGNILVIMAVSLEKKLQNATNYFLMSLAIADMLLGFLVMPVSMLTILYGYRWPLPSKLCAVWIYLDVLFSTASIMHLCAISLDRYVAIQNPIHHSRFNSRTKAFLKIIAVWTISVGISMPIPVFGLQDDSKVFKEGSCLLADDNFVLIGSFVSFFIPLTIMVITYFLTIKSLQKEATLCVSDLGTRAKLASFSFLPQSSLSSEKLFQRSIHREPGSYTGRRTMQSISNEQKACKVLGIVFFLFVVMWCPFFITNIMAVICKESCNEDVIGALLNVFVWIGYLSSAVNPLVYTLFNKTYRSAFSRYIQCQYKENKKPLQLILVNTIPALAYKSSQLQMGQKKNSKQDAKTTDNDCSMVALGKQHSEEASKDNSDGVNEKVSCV
# Molecular target: T1, 5-HT2A receptor (Homo sapiens, UniProt P28223)
# T1 construct: expressed in transfected cells; host or cells: NIH3T3 cells, pSI expression vector
# Assay: R-SAT functional receptor assay
# Format: cell-based
# Experimental: The functional receptor assay, Receptor Selection and Amplification Technology (R-SAT), was used (with minor modifications from that previously described U.S. Pat. No. 5,707,798) to screen compounds for efficacy at the 5-HT2A receptor. Briefly, NIH3T3 cells were grown in 96 well tissue culture plates to 70-80% confluence. Cells were transfected for 12-16 hours with plasmid DNAs using superfect (Qiagen Inc.) as per manufacture's protocols. R-SAT's were generally performed with 50 ng/well of receptor and 20 ng/well of Beta-galactosidase plasmid DNA. All receptor and G-protein constructs used were in the pSI mammalian expression vector (Promega Inc) as described in U.S. Pat. No. 5,707,798. The 5HT2A receptor gene was amplified by nested PCR from brain cDNA using the oligodeoxynucleotides based on the published sequence (see Saltzman et. al. Biochem. Biophys. Res. Comm. 181:1469-78 (1991)). Large-scale transfections, cells were transfected for 12-16 hours, then trypsinized and frozen in DMSO. […] Media was then removed from the plates and marker gene activity was measured by the addition of the beta-galactosidase substrate ONPG (in PBS with 5% NP-40). The resulting colorimetric reaction was measured in a spectrophotometric plate reader (Titertek Inc.)at […]. All data were analyzed using the computer program XLFit (IDBSm). […]
smiles,measurement,setting,value
"CC(C)COc1ccc(CC(=O)N(Cc2ccc(F)cc2)C2CCN(CCC3OCCCO3)CC2)cc1 [Example 103NLS63-F, N-{1-[2-(1,3-Dioxan-2-yl)ethyl]piperidin-4-yl}-N-(4-fluorobenzyl)-2-(4-isobutoxyphenyl)acetamide, oxalate]",Emax,"120 h, read-out: 5HT2A % INH",101%
same,IC50,read-out: 5HT2A pIC50 (converted),0.316 nM

# Structures can show the parent of a compound that is named as a salt.
